# From patent publication US11618758B2, “Bicyclic and tricyclic pyrimidine tyrosine kinase inhibitors with antitubulin activity and methods of treating a patient” (Duquesne University of the Holy Spirit, priority 2011, dated 2023)
# Amino acid sequences for entries named in this document (tags omitted). Residues count along the entry.
# UniProt P09619, 33-1106, species assumed: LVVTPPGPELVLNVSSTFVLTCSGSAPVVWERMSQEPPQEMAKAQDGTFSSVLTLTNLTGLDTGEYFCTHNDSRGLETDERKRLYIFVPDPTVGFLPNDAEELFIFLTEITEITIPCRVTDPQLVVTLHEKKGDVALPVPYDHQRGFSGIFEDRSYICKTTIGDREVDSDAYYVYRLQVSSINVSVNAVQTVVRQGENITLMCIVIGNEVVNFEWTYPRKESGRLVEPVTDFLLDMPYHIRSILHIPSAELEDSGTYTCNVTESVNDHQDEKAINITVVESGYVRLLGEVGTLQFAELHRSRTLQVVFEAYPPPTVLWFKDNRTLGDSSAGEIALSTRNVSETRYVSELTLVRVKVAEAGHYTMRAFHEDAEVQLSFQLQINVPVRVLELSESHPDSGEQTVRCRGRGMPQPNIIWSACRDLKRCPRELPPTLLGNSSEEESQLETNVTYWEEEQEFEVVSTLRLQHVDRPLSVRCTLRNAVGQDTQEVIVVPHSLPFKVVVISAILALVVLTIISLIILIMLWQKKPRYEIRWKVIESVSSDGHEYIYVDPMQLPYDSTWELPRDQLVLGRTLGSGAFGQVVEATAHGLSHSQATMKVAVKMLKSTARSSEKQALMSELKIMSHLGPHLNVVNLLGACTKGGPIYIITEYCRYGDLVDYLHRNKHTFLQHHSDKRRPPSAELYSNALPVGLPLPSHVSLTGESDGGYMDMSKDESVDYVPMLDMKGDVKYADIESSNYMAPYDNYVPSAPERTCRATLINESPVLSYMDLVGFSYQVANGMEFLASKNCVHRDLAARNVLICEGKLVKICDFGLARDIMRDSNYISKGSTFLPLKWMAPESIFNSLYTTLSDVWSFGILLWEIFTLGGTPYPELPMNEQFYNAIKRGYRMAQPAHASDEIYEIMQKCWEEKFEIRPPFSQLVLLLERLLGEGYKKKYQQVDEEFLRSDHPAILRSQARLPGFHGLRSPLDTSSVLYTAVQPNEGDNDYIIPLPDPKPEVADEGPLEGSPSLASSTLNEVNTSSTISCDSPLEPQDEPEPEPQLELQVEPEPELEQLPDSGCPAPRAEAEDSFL
# Target: platelet derived growth factor receptor-β (PDGFR-β) (Homo sapiens, UniProt P09619)
# Assay: Kinase inhibition PDGFRβ
# Assay type: biochemical
compound,measurement,value
"CN(C)c1ccc(/C=C2\C(=O)Nc3ccccc32)cc1 [DMBI, reference compound]",IC50,3.75 µM
